Patent publication US6214581A, “Nucleic acids encoding a functional human purinoreceptor P2X3 and P2X6, and methods of production and use thereof” (Abbott Laboratories, priority 1998, dated 2001)

Biological target: T1, human P2X3 receptors (Homo sapiens, UniProt P56373)
T1 construct: expressed in transfected cells; host or cells: Xenopus laevis oocytes (nuclear injection of the P2X3 insert in pCDNA3.1)
T1 sequence (P56373 1-397): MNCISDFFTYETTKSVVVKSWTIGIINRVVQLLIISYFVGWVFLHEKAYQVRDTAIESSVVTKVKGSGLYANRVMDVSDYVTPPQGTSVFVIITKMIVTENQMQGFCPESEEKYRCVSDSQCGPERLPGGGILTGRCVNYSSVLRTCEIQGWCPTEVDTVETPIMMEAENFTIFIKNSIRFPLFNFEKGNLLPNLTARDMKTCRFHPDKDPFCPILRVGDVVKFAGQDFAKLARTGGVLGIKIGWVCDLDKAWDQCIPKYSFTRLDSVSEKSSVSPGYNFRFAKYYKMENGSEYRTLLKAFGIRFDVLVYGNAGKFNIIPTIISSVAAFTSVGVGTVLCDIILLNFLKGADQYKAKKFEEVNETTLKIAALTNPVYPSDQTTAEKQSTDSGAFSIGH
Test: Two-electrode voltage-clamp of Xenopus oocytes expressing recombinant human P2X3 receptor
Assay type: cell-based
Details: block of ATP (0.3 μM)-induced currents
Procedure: Responses were measured at a holding potential of -60 mV in modified Barth's solution containing 10 mM BaCl2 and lacking CaCl2 and MgCl2 (final pH 7.4). However, in some experiments, the cell potential was intentionally varied in order to determine the response current-voltage relationship. Agonist was applied briefly using a computer-controlled solenoid valve and a push/pull applicator positioned to within 200-400 μm from the oocyte. Responses were recorded by computer in synchrony with agonist application. Antagonists were included with agonist in the push/pull applicator and were applied to the bath by superfusion for at least 3 minutes before application of agonist. Responses were quantified by measuring the peak amplitude.
The clone was grown up and prepared in large scale using the QIAgen maxiprep DNA preparation system according to the manufacturer's instructions. T he DNA was ethanol precipitated and resuspended in TE buffer. […]
For functional anaysis of human P2X3 receptors, 10 ng of human P2X3 DNA prepared as described above were injected into the nucleus of Xenopus oocytes. […] The response to 10 μM ATP was then recorded.

Work on Cc1nc(N=Nc2ccc(S(=O)(=O)O)cc2S(=O)(=O)O)c(COP(=O)(O)O)c(C=O)c1O [PPADS, pyridoxal-phosphate-6-azophenyl-2',4'-disulfonic acid] yielded an IC50 of 1 µM.
